Reference: patent publication US20260232826A1, “ANTIBODY-DRUG CONJUGATES AND THEIR USES” (Mablink Bioscience, priority 2022, published 2026)

How the values were obtained:
[1] = test system: folate receptor alpha negative (FRα neg) BT-474 breast cancer model; assay: In vivo efficacy, FRα negative BT-474 xenograft; parameters: species or system SCID mice; conditions: IV once at 10 mg/kg (FIG. 17)
Text: Four to five-week-old female CB-17 severe combined immunodeficient (SCID) mice are obtained and quarantined for 7 days prior to study initiation. Mice are inoculated subcutaneously with cells (5-10×10^6 cells per mouse) resuspended in PBS (OV-90, SW-620, KB, BT-474 cell lines) or 50% BD Matrigel (Corning®) in PBS (PA-1, IGROV-1, OVCAR-3, NCI-H2110 cell lines). When average tumor volume reached about 120-150 mm^3 mice are randomized (typically 7 mice per group) and treated by a single (unless stated otherwise) intravenous injection of PBS (negative control) or investigated antibody-drug conjugate. Tumor volumes are measured every 3-5 days using a caliper device (length×width) and calculated using the following formula V=4/3×π×R3, where R represents the radius. Mice are sacrificed when the tumor volume exceeded 1500 mm^3 or in case of ulceration of the tumor.
Four to five-week-old female CB-17 severe combined immunodeficient (SCID) mice were obtained from Janvier labs (Le Genest-Saint-Isle, France) and quarantined for 7 days prior to study initiation. […] Tumor volumes were measured every 3-5 days using a caliper device (length×width) and calculated using the following formula V=4/3×π×R^3, where R represents the radius. […]

[2] = Pulmonary inflammatory and toxicity evaluation in mice; assay type: in vivo, C57/BL6 mice; parameters: Lung inflammatory level by CD45 expression (leucocyte infiltration): key to the marks not given beside the values
Text: Bleomycin has been widely used in rodents to model pulmonary fibrosis for the study of mechanisms involved in fibrogenesis and for evaluation of potential therapies. To assess ADC pulmonary toxicity, bleomycin-induced pulmonary fibrosis was induced in mice following known procedures as described by Walter and Kleeberger, Mouse Models of Bleomycin-Induced Pulmonary Fibrosis, 2008, Curr. Protoc. Pharmacol. 40:5.46.1-5.46.17. At day 0, 4 and 8, female C57/BL6 mice (Janvier Labs, Le Genest-Saint-Isle, France) were lightly anesthetized with isoflurane and intranasally administered with 20 μL of 1 mg/kg bleomycin PBS solution (Bleomycine Bellon, 15 mg for injection) or PBS (negative control mice). Non-bleomycin-conditioned mice were included as a negative control group. At day 11, mice (n=6 animals per group) were treated with tested conjugates (10 mg/kg i.p.) and were monitored for apparent signs of toxicity and weight loss during the duration of the experiment. A positive control group was included, treated with clinically approved conjugate Enhertu® (10 mg/kg i.p.), which is known to induce interstitial lung diseases and pneumonitis preclinically and in a small percentage of patients. At day 25 all mice were sacrificed, broncho-alveolar supernatant was obtained (by broncho-alveolar lavage) and lungs organs were harvested, weighted, and fixed in 0.1% (w/v) formaldehyde in PBS. After fixation, lungs were rinsed with a 0.02% (w/v) sodium azide in PBS solution and embedded in paraffin for histological staining. Slides were stained with anti-CD45 antibody (Abcam cat #ab10558, 1:500) to quantify level of leucocyte infiltration in the lungs. Secondary biotinylated goat anti-rabbit antibody (Vector Laboratories cat #BA-1000, 1:300) and Avidin-HRP (Vector Laboratories cat #A-2004) were used for detection. Histological experiments and imaging were outsourced at the Centre d'Imagerie Quantitative Lyon-Est (CiQLE) platform (Lyon, France). Random sections of IHC images (30% zoomed) were processed using native functionalities of the Fiji software (developed and maintained by the Laboratory for Optical and Computational Instrumentation of the University of Wisconsin-Madison, USA) to count CD45 positive cells within slides (1 slide per lung) and assess level of leucocyte infiltration. Monitoring of total counts of lymphocytes (CD3/CD4), eosinophils (CCR3/SiglecF), neutrophils (Ly6g/Ly6C) and macrophages (F4/80) in broncho-alveolar supernatants obtained from non-bleomycin-conditioned mice was done by flow cytometry. Inflammatory cytokines levels in broncho-alveolar supernatants obtained from non-bleomycin-conditioned mice were quantified by ELISA. IL-2, IL-4, IL-5, IL-6, IL-9, IL-10, IL-13 were quantified using Bio-Plex Pro™ Mouse Cytokine Th2 Panel (Bio-Rad cat #L60000UKVT), following manufacturer's instructions. TGF-β and IL-17 were quantified using Mouse TGF-beta 1 DuoSet and Mouse IL-17 DuoSet ELISA kits respectively (R&D systems cat #DY1679 and DY421), following manufacturer's instructions.
Statistical significance was evaluated using one-way ANOVA (Tukey method) using GraphPad Prism 9 software. p-values are represented as * (p<0.033), ** (p<0.002), *** (p<0.0002), and **** (p<0.0001) and “ns” stands for non-significant (p>0.123).

Substance: trastuzumab deruxtecan [Enhertu®, reference compound]
- efficacy of positive control, BT-474 (HER2 positive) xenograft [1]: efficacious
- Lung inflammatory level by CD45 expression (leucocyte infiltration) ([2]; mouse, in vivo): +++
- leucocyte inflammatory infiltration (IHC CD45) compared to untreated group ([2]; mouse, in vivo): significant increase
- lymphocyte counts in broncho-alveolar supernatants compared to untreated control group ([2]; mouse, in vivo): significant increase
- macrophages, neutrophils and eosinophils counts in broncho-alveolar supernatants compared to untreated control group ([2]; mouse, in vivo): significant increase
- leucocyte inflammatory infiltration (IHC CD45) compared to bleomycin-conditioned control group ([2]; mouse, in vivo, ip, 10 mg/kg): significant increase
- inflammatory cytokine levels in broncho-alveolar supernatants compared to untreated group ([2]; non-bleomycin-conditioned mice, ELISA (FIG. 21A)): significant increase in IL-13, IL-17 and TGF-β cytokine levels
